# According to patent publication US11319337B2, “3-desoxy derivative and pharmaceutical compositions thereof” (Intercept Pharmaceuticals, Inc., priority 2016, dated 2022):
# Chains of the proteins cited; added tags and fusions are not shown.
# UniProt P05181, whole entry: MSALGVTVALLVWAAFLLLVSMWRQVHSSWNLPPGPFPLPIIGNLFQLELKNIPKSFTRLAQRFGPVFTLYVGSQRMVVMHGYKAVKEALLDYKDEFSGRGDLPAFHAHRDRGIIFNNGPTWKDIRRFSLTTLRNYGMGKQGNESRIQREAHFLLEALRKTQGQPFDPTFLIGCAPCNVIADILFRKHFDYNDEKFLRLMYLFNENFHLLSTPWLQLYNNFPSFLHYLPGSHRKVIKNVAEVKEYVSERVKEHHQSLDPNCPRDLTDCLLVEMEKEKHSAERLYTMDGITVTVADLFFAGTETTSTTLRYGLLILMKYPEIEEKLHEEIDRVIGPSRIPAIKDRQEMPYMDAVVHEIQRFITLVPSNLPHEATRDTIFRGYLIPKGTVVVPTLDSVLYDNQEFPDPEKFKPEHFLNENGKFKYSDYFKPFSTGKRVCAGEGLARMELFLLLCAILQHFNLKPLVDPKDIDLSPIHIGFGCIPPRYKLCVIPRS
# Target: CYP2E1 (Homo sapiens, UniProt P05181)
compound,measurement,value
CCN(CC)C(=S)S,IC50,400 nM
